Columns and labels:
[1] = system: Vero cell; assay: Cytotoxicity against host cells (plaque reduction assay); type: cell-based
Description: (§1) Antiviral activity of BU-2231 V was assessed using the herpes simplex virus type I (HSV-1)-Vero cell system by the plaque reduction assay and the dye-uptake assay (C. McLaren et al., Antiviral Research, 3, 223 (1983)). ε-poly-L-lysine (S. Shima and H. Sakai, Agr. Biol. Chem., 41, 1807 (1977)), a structurally related compound produced by Streptomyces No. 346 (kindly provided by Prof. H. Sakai of University of Osaka Prefecture) and two types of α-poly-L-lysine (MW 3,500 and 25,000) were comparatively tested as the reference compound. The results are shown in Table 2 together with their cytotoxicity against the host cells.

[2] = system: Vero cell; assay: Cytotoxicity against host cells (dye-uptake assay); type: cell-based
Description: as §1

Row | Substance | Plaque reduction assay, Cytotoxicity vs Vero cell (TCID50) [1] [µg/mL] | Dye-uptake assay, Cytotoxicity vs Vero cell (TCID50) [2] [µg/mL]
1 | α-poly-L-lysine [α-Poly-L-lysine (MW: 3,500)] | > 400 | > 100
2 | α-poly-L-lysine [α-Poly-L-lysine (MW: 25,000)] | 25 | 20

Reference: patent US4803224A, “Antiviral antibiotic complex” (Bristol-Myers Company, priority 1986, dated 1989)
